Broadly, the pIC50 is the IC50 on a negative log10 scale, so that one unit is a factor of ten. Lower therefore signals a large IC50.

IC50 data for one compound are collected here from patent US7683073B2, “Isoquinoline-1,3,4-trione compounds, the synthetic method and the use thereof” (Shanghai Institute of Materia Medica, Chinese Academy of …, priority 2005, dated 2010).

The target in the assay is T1, caspase-3 (Homo sapiens, UniProt P42574).
T1 sequence (P42574 29-175 limits assumed): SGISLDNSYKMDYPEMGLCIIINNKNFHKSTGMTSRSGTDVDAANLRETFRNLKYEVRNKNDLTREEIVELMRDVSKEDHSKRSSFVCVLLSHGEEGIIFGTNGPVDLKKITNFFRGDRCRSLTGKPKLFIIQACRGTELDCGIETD
T1 sequence (P42574 176-277 limits assumed): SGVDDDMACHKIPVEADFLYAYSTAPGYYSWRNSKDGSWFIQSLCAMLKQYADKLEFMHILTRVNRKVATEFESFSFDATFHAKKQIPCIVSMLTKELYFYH
Kind of assay: biochemical.

pIC50: −log10 of the molar value.

As to `CC(=O)N[C@@H](CC(=O)O)C(=O)N[C@@H](CCC(=O)O)C(=O)N[C@H](C(=O)N[C@H](C=O)CC(=O)O)C(C)C` [Ac-DEVD-CHO, Ac-Asp-Glu-Val-Asp-aldehyde], the pIC50 was 7.47.
